The assay deals with T1, FimHtrJ96 (Escherichia coli, UniProt P08191).
T1 construct: coding for the lectin domain of FimH (residues 1-158) with a C-terminal 6-histidine tag; made in house; host or cells: E. coli HB101 (lacking the fim operon), periplasmic extract, plasmid pPKL241
The assay is classed as binding, uropathogenic E. coli strain J96. To be noted: for ΔG°: Table 1, calculated from KD; for Kd: displacement assay, FimHtrJ96. As to the method: To measure the dissociation constant for FimH:alkyl or aryl-mannoside binding, two different binding assays were developed. The first binding assay uses [^3H]-mannose. The amount of radioactively labeled mannose bound to FimHtrJ96 was measured at six different concentrations of [^3H]-mannose, and a hyperbolic curve fitted to the resulting data (FIG. 1A). FimHtrJ96 corresponds to the carbohydrate (mannose) binding domain of FimH from the uropathogenic E. coli strain J96. The dissociation equilibrium constant was determined from this graph at the concentration of mannose […], which corresponds to occupation of half of the binding sites.
Surface Plasmon Resonance measurements were performed on a Biacore3000™. In a first experiment, the kinetic constants and maximal binding were determined for the FimH-antibody interaction. Next, a fixed concentration of FimH (close to the KD of the FimH-antibody interaction) in combination with varying concentrations of carbohydrate, were used to determine the dissociation equilibrium constant of the FimH-saccharide interaction in a competition experiment. Every measurement was repeated at least twice, including testing the variation between different protein and saccharide batches.
To eliminate the possibility of different binding strength for full length FimH and FimHtrJ96, the binding of alpha-D-mannose to FimC:FimH complex was also measured. […] The inhibition of [^3H]-mannose binding was used in a displacement assay to determine the dissociation constant for a synthetic butyl mannoside by measuring the amount of [^3H]-mannose bound to the protein in the presence of increasing amounts of the inhibitor (FIG. 1B). […] To investigate the effect of sequential addition of methyl groups to the O1 oxygen of D-mannose, a series of alkyl mannosides were synthesized and the dissociation constants determined using the [^3H]-mannose displacement assay and by surface plasmon resonance (Table 1).
Surface Plasmon Resonance measurements were performed on a Biacore3000™. The Fab fragments of a monoclonal antibody against FimH were covalently immobilised via lysines at 1000 Resonance Units (1000 pg ligand/mm^2) in flowcell Fc2 on a CM5 biasensor chip (BIAapplications Handbook, Biacore AB, Uppsala, Sweden). Immobilisation buffer was 100 mM NaAc pH 5.0 with 100 mM NaCl. The reference flowcell Fc1 was left blank.
Binding of FimH to the immobilized antibody was measured with a Biacore 3000 instrument in running buffer (phosphate buffered saline with 0.005% surfactant P20 and 3 mM EDTA), on both flowcells Fc1 and Fc2 simultaneously, at a flow rate of 30 μl/min and at 25° C. Complete dissociation of FimH was done with running buffer before starting a new binding cycle. For all measurements, the association time was 3 minutes, the dissociation time was 30 min. All binding cycles were performed in duplicate, including a zero concentration cycle of FimH (injection of running buffer).
In a first experiment, the kinetic constants, ka and kd, and the maximal binding Rmax, were determined for the FimH-antibody interaction (FimH concentrations (nM): 2000, 1000, 500, 250, 125, 62.5, 31.25, 15.625, 7.818, 3.911, 1.957, 0). All analyses were performed with the BIAeval software. A Langmuir binding isotherm with a 1:1 stoichiometry was fitted to the data, from which the kinetic constants and maximal binding were obtained.
In the next experiment, samples containing a fixed concentration of FimH (close to the KD of the FimH-antibody interaction) in combination with varying concentrations of saccharide, were used to determine the dissociation constant of the FimH-saccharide interaction in a competition experiment. First, ten-fold dilutions of the saccharide solution were used to determine the concentration range for binding of the saccharide to FimH.

The chains behind the UniProt entries cited, without tags or fusion partners. Residues count along the entry.
UniProt P08191, 22-179: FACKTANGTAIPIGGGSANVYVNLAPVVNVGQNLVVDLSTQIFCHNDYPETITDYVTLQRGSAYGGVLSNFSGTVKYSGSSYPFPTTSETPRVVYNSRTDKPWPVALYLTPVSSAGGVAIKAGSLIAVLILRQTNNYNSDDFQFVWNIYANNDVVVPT

Turning to “ethyl aminophenyl alpha-D-man [Ethyl aminophenyl man]”, the “ΔG°” value is -9.4 kcal/mol and the Kd was 137 nM.

Turning to α1-3,α1-6 mannopentaose, the dissociation constant (Kd) turned out to be 330 nM. Besides, the “ΔG° J96” value (Table 3, calculated from KD) was -8.8 kcal/mol.

For the substance “ethylphenyl alpha-D-man [Ethylphenyl man]”, the “ΔG°” value was -9.6 kcal/mol and the Kd is 86 nM.

Values taken from patent US20080171706A1, “Anti-Adhesive Compounds to Prevent and Treat Bacterial Infections” (priority 2004, published 2008).
